Data as given in paper PMC11599453 (The Journal of Biological Chemistry, 2024).

Protein sequences, listed by entry. Tags and fused reporters are not part of them. Residues count along the entry.
UniProt P54108, 21-245: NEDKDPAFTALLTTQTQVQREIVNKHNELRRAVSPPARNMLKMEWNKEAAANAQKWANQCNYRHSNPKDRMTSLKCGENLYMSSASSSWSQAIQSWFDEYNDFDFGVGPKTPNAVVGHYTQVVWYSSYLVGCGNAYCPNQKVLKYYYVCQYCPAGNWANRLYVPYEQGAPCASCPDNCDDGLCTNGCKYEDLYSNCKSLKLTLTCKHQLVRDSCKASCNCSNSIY
UniProt P16562, 22-243: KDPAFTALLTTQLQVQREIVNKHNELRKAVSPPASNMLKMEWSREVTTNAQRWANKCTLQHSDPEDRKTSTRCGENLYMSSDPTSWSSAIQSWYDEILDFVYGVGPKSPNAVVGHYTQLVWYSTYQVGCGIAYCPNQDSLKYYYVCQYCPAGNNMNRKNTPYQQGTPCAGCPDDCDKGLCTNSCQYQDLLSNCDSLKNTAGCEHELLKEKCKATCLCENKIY
UniProt P47032, 20-299: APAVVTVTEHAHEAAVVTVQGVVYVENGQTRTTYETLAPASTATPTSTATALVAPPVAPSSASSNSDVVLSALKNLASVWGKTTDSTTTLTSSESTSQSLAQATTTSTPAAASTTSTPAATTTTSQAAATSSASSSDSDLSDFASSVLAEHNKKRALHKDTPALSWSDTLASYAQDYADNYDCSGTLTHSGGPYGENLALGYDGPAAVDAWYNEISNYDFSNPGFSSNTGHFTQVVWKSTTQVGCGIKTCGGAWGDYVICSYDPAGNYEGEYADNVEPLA

Assays:
[1] = molecular target: CRISP3 expressed from a plasmid in yeast (human) (UniProt P54108)
[2] = molecular target: HA-tagged CRISP2 secreted by yeast (UniProt P16562)
[3] = molecular target: Pry1, yeast CAP family protein, expressed from a plasmid in yeast (S. cerevisiae) (UniProt P47032)
[4] = molecular target: CRISP2 (cysteine-rich secretory protein 2), purified, fluorescently labeled (UniProt P16562); experiment: MST; 100 nM RED-tris-NTA-labeled CRISP2 (or L98G Y99P mutant) mixed with a serial dilution of unlabeled A1BG or Ig domain; 20 mM Tris pH 7.5, 30 mM NaCl, 0.05% Triton X-100; Monolith NT.115, 80% laser power; one site specific fit; triplicates

- export of acetylated [14C]-cholesterol (export index) from hem1Δ say1Δ pry1Δ pry2Δ yeast coexpressing A1BG and CRISP3 [1]: > 50%
- export of acetylated [14C]-cholesterol (export index) from hem1Δ say1Δ pry1Δ pry2Δ yeast coexpressing A1BG and CRISP2 [2]: > 50%
- export of acetylated [14C]-cholesterol (export index) from hem1Δ say1Δ pry1Δ pry2Δ yeast coexpressing A1BG and Pry1 [3]: > 50%
- Kd [4]: 0.0137 µM
Substance: Alpha-1-B glycoprotein (A1BG), full length, purified (from UniProt P04217 22-495) (natural protein)
